Measurements published in patent EP3421457B1, “PYRIMIDINE FGFR4 INHIBITORS” (priority 2013, dated 2015).

Protein sequences, listed by entry. Tags and fused reporters are not part of them. Residues count along the entry.
UniProt P22455, 22-802: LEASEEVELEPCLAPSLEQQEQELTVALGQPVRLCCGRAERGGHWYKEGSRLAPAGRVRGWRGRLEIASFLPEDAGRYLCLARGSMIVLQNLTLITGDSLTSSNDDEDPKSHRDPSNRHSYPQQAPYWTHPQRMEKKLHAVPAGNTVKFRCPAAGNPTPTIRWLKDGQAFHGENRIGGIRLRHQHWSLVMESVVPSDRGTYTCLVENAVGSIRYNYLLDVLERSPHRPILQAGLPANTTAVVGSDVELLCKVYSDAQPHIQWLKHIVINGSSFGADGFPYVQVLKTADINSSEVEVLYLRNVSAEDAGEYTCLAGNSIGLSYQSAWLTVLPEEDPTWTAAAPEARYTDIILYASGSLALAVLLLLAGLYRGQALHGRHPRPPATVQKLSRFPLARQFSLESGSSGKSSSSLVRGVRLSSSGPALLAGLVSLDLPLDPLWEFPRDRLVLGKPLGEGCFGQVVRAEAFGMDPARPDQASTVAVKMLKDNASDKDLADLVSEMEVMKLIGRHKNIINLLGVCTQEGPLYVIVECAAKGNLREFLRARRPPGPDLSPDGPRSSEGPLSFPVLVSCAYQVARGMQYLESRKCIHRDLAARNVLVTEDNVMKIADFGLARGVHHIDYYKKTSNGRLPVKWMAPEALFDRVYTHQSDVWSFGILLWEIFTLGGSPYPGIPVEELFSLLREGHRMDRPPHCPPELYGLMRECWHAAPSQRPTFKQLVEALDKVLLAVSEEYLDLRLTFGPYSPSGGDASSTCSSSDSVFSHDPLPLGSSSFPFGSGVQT

Assays:
FGFR4 = molecular target: T1, FGFR4 (Homo sapiens, UniProt P22455); assay: IC50 Profiling of Kinase Activity Inhibition (Kinase HotSpot assay); format: biochemical
T1 construct: purchased Invitrogen

HUH7 = assay: Cellular Viability assay to obtain GI50 (CellTiter-Glo); format: cell-based; settings: Homo sapiens, Huh-7; HUH7, 72h, FGF19 amplified line
SNU398 = assay: as above; format: cell-based; settings: Homo sapiens, SNU-398; SNU398, 72h, FGF19 non-amplified
JHH7 = assay: as above; format: cell-based; settings: Homo sapiens; JHH7, 72h, FGF19 amplified line
JHH7 cells = assay: In vivo efficacy in tumor xenograft model; parameters: species or system Nude mice; settings: for Complete Regression / Partial Regression / Progressive Disease / Stable Disease: 15 days, number of animals, n=10 per group
HEP3B [1] = assay: Cellular Viability assay to obtain GI50 (CellTiter-Glo); format: cell-based; settings: Homo sapiens, 72h, FGF19 amplified line
HUH7 cells = assay: In vivo efficacy in tumor xenograft model; parameters: species or system Nude mice; settings: for Complete Regression / Partial Regression / Progressive Disease / Stable Disease: HUH7 xenograft, 15 days, number of animals, n=10 per group
Hep3B [2] = assay: In vivo efficacy in tumor xenograft model; parameters: species or system Nude mice; settings: for Complete Regression / Partial Regression / Progressive Disease / Stable Disease: HEP3B xenograft, 15 days, number of animals, n=5 per group
SNU449 = assay: Cellular Viability assay to obtain GI50 (CellTiter-Glo); format: cell-based; settings: Homo sapiens, SNU-449; SNU449, 72h, FGF19 non-amplified
HEPG2 = assay: as above; format: cell-based; settings: Homo sapiens; HEPG2, 72h, FGF19 non-amplified
[3] = JHH7 xenograft, 12.5 mg/kg twice daily i.p.
[4] = JHH7 xenograft, 25 mg/kg twice daily i.p.
[5] = JHH7 xenograft, 37.5 mg/kg twice daily i.p.

SMILES: C=CC(=O)Nc1cc(C(=O)N2CCN(C)CC2)ccc1Nc1cc(N(C)C(=O)Nc2c(Cl)c(OC)cc(OC)c2Cl)ncn1 [Compound 148, N-(2-((6-(3-(2,6-dichloro-3,5-dimethoxyphenyl)-1-methylureido)pyrimidin-4-yl)amino)-5-(4-methylpiperazine-1-carbonyl)phenyl)acrylamide]
IC50 (FGFR4; read-out: FGFR4 IC50): < 1 nM

SMILES: C=CC(=O)Nc1cc(OCCOC)ccc1Nc1cc(N(C)C(=O)Nc2c(Cl)c(OC)cc(OC)c2Cl)ncn1 [Compound 142, N-(2-((6-(3-(2,6-dichloro-3,5-dimethoxyphenyl)-1-methylureido)pyrimidin-4-yl)amino)-5-(2-methoxyethoxy)phenyl)acrylamide]
IC50 (FGFR4): < 1 nM

SMILES: C=CC(=O)Nc1cc(N2CCN(CC)CC2)ccc1Nc1cc(N(C)C(=O)Nc2c(Cl)c(OC)cc(OC)c2Cl)ncn1 [Compound 108, N-(2-(6-(3-(2,6-Dichloro-3,5-dimethoxyphenyl)-1-methylureido)pyrimidin-4-ylamino)-5-(4-ethylpiperazin-1-yl)phenyl)acrylamide]
GI50 (HUH7): 408 ± 128 nM
GI50 (SNU398): > 10000 nM
GI50 (JHH7): 216 ± 70 nM
sensitivity to compound 108 (JHH7 cells; JHH7 xenograft model, compared among the three models): the least sensitive
response category (JHH7 cells; JHH7 xenograft, all dose levels tested): Progressive Disease in all dose levels tested
Complete Regression (JHH7 cells; [3]): 0
Partial Regression (JHH7 cells; [3]): 0
Progressive Disease (JHH7 cells; [3]): 10
Stable Disease (JHH7 cells; [3]): 0
Complete Regression (JHH7 cells; [4]): 0
Partial Regression (JHH7 cells; [4]): 0
Progressive Disease (JHH7 cells; [4]): 10
Stable Disease (JHH7 cells; [4]): 0
Complete Regression (JHH7 cells; [5]): 0
Partial Regression (JHH7 cells; [5]): 0
Progressive Disease (JHH7 cells; [5]): 10
Stable Disease (JHH7 cells; [5]): 0
GI50 (HEP3B [1]): 18 ± 6 nM
sensitivity to compound 108 (HUH7 cells; HUH7 xenograft model, compared among the three models): intermediate sensitivity
Complete Regression (HUH7 cells; 25 mg/kg twice daily i.p.): 1
Partial Regression (HUH7 cells; 25 mg/kg twice daily i.p.): 4
Progressive Disease (HUH7 cells; 25 mg/kg twice daily i.p.): 2
Stable Disease (HUH7 cells; 25 mg/kg twice daily i.p.): 3
Complete Regression (HUH7 cells; 37.5 mg/kg twice daily i.p.): 2
Partial Regression (HUH7 cells; 37.5 mg/kg twice daily i.p.): 5
Progressive Disease (HUH7 cells; 37.5 mg/kg twice daily i.p.): 0
Stable Disease (HUH7 cells; 37.5 mg/kg twice daily i.p.): 3
sensitivity to compound 108 (Hep3B [2]; HEP3B xenograft model, compared among the three models): the most sensitive
Complete Regression (Hep3B [2]; 12.5 mg/kg twice daily i.p.): 0
Partial Regression (Hep3B [2]; 12.5 mg/kg twice daily i.p.): 0
Progressive Disease (Hep3B [2]; 12.5 mg/kg twice daily i.p.): 5
Stable Disease (Hep3B [2]; 12.5 mg/kg twice daily i.p.): 0
Complete Regression (Hep3B [2]; 25 mg/kg twice daily i.p.): 0
Partial Regression (Hep3B [2]; 25 mg/kg twice daily i.p.): 1
Progressive Disease (Hep3B [2]; 25 mg/kg twice daily i.p.): 0
Stable Disease (Hep3B [2]; 25 mg/kg twice daily i.p.): 4
Complete Regression (Hep3B [2]; 37.5 mg/kg twice daily i.p.): 5
Partial Regression (Hep3B [2]; 37.5 mg/kg twice daily i.p.): 0
Progressive Disease (Hep3B [2]; 37.5 mg/kg twice daily i.p.): 0
Stable Disease (Hep3B [2]; 37.5 mg/kg twice daily i.p.): 0
GI50 (SNU449): > 10000 nM
GI50 (HEPG2): 6510 ± 1420 nM

Now from value to molecule:

IC50 (FGFR4; Table 1, read-out: FGFR4 IC50): < 1 nM
SMILES: C=CC(=O)Nc1cc(N2CCOCC2)ccc1Nc1cc(N(C)C(=O)Nc2c(Cl)c(OC)cc(OC)c2Cl)ncn1 [Compound 123, N-(2-{6-[3-(2,6-Dichloro-3,5-dimethoxy-phenyl)-1-methyl-ureido]-pyrimidin-4-ylamino}-5-morpholin-4-yl-phenyl)-acrylamide]

IC50 (FGFR4; Table 1, read-out: FGFR4 IC50): 27 nM
SMILES: C=C(F)C(=O)Nc1ccccc1Nc1cc(N(C)C(=O)Nc2c(Cl)c(OC)cc(OC)c2Cl)ncn1 [Compound 110, N-(2-(6-(3-(2,6-dichloro-3,5-dimethoxyphenyl)-1-methylureido)pyrimidin-4-ylamino)-phenyl)-2-fluoroacrylamide]

IC50 (FGFR4; Table 1, read-out: FGFR4 IC50): 4 nM
SMILES: C=CC(=O)Nc1ccc(N2CCN(CC)CC2)cc1Nc1cc(N(C)C(=O)Nc2c(Cl)c(OC)cc(OC)c2Cl)ncn1 [Compound 133, N-[2-{6-[3-(2,6-Dichloro-3,5-dimethoxy-phenyl)-1-methyl-ureido]-pyrimidin-4-ylamino}-4-(4-ethyl-piperazin-1-yl)-phenyl]-acrylamide trifluoroacetic acid salt]

Where a name gives a salt, the structure may show the parent alone. Read-outs that look alike come from different tables or passages of the source. One block for each molecule: values may come before it.
